Membrane permeability of cyclic peptides

PAMPA is the parallel artificial membrane permeability assay, which has no cells and reads passive diffusion. Permeability is in 10^-6 cm/s, converted from the database's log10 values; higher is more permeable.

* CC(=O)N[C@@H]1C(=O)N2CCC[C@H]2C(=O)N(C)[C@H](CC(C)C)C(=O)N[C@H](CC(C)C)C(=O)N[C@H](CC(C)C)C(=O)N[C@@H](CC(C)C)C(=O)N[C@H](C)C(=O)N[C@@H](CC(C)C)C(=O)N2CCC[C@@H]2C(=O)O[C@@H]1C: PAMPA 0.15 × 10^-6 cm/s
* CC(=O)N1CCC[C@@H]1C(=O)N(C)[C@H](CC(C)C)C(=O)N[C@@H]1C(=O)N(C)[C@@H](CC(C)C)C(=O)N(C)[C@H](CC(C)C)C(=O)N(C)[C@H](CC(C)C)C(=O)N(C)[C@@H](C)C(=O)N[C@@H](CC(C)C)C(=O)N2CCC[C@@H]2C(=O)O[C@@H]1C: PAMPA 2.1 × 10^-6 cm/s
* CC(=O)N1CCC[C@H]1C(=O)N[C@@H]1C(=O)N[C@H](CC(C)C)C(=O)N(C)[C@H](CC(C)C)C(=O)N(C)[C@H](CC(C)C)C(=O)N(C)[C@@H](CC(C)C)C(=O)N[C@@H](C)C(=O)N[C@@H](CC(C)C)C(=O)N2CCC[C@@H]2C(=O)O[C@@H]1C: PAMPA 3.9 × 10^-6 cm/s
* CC(=O)N1CCC[C@@H]1C(=O)N(C)[C@H](CC(C)C)C(=O)N[C@@H]1C(=O)N(C)[C@@H](CC(C)C)C(=O)N[C@@H](CC(C)C)C(=O)N(C)[C@@H](CC(C)C)C(=O)N[C@@H](C)C(=O)N[C@H](CC(C)C)C(=O)N2CCC[C@@H]2C(=O)O[C@@H]1C: PAMPA 0.23 × 10^-6 cm/s
* CC(=O)N1CCC[C@H]1C(=O)N(C)[C@H](CC(C)C)C(=O)N[C@@H]1C(=O)N[C@H](CC(C)C)C(=O)N[C@H](CC(C)C)C(=O)N(C)[C@H](CC(C)C)C(=O)N(C)[C@H](C)C(=O)N[C@@H](CC(C)C)C(=O)N2CCC[C@H]2C(=O)O[C@@H]1C: PAMPA 3.2 × 10^-6 cm/s
* CC(=O)N1CCC[C@@H]1C(=O)N(C)[C@@H](CC(C)C)C(=O)N[C@@H]1C(=O)N(C)[C@H](CC(C)C)C(=O)N(C)[C@H](CC(C)C)C(=O)N[C@H](CC(C)C)C(=O)N(C)[C@H](C)C(=O)N[C@@H](CC(C)C)C(=O)N2CCC[C@@H]2C(=O)O[C@@H]1C: PAMPA 8.1 × 10^-6 cm/s
* CC(=O)N1CCC[C@H]1C(=O)N(C)[C@H](CC(C)C)C(=O)N[C@@H]1C(=O)N[C@@H](CC(C)C)C(=O)N[C@H](CC(C)C)C(=O)N[C@H](CC(C)C)C(=O)N[C@@H](C)C(=O)N[C@@H](CC(C)C)C(=O)N2CCC[C@@H]2C(=O)O[C@@H]1C: PAMPA 0.32 × 10^-6 cm/s
* CC(=O)N1CCC[C@H]1C(=O)N(C)[C@@H](CC(C)C)C(=O)N[C@@H]1C(=O)N(C)[C@@H](CC(C)C)C(=O)N[C@H](CC(C)C)C(=O)N[C@H](CC(C)C)C(=O)N(C)[C@H](C)C(=O)N[C@H](CC(C)C)C(=O)N2CCC[C@@H]2C(=O)O[C@@H]1C: PAMPA 0.13 × 10^-6 cm/s
* CC(=O)N1CCC[C@H]1C(=O)N(C)[C@H](CC(C)C)C(=O)N[C@@H]1C(=O)N(C)[C@H](CC(C)C)C(=O)N[C@H](CC(C)C)C(=O)N[C@H](CC(C)C)C(=O)N[C@@H](C)C(=O)N[C@@H](CC(C)C)C(=O)N2CCC[C@H]2C(=O)O[C@@H]1C: PAMPA 0.41 × 10^-6 cm/s
* CC(=O)N1CCC[C@H]1C(=O)N[C@@H]1C(=O)N(C)[C@H](CC(C)C)C(=O)N(C)[C@H](CC(C)C)C(=O)N(C)[C@@H](CC(C)C)C(=O)N(C)[C@@H](CC(C)C)C(=O)N(C)[C@H](C)C(=O)N[C@@H](CC(C)C)C(=O)N2CCC[C@@H]2C(=O)O[C@@H]1C: PAMPA 8.3 × 10^-6 cm/s
* CC(=O)N1CCC[C@@H]1C(=O)N(C)[C@@H](CC(C)C)C(=O)N[C@@H]1C(=O)N[C@H](CC(C)C)C(=O)N[C@H](CC(C)C)C(=O)N(C)[C@H](CC(C)C)C(=O)N(C)[C@@H](C)C(=O)N[C@H](CC(C)C)C(=O)N2CCC[C@H]2C(=O)O[C@@H]1C: PAMPA 1.7 × 10^-6 cm/s
* CC(=O)N1CCC[C@@H]1C(=O)N(C)[C@@H](CC(C)C)C(=O)N[C@@H]1C(=O)N[C@@H](CC(C)C)C(=O)N[C@@H](CC(C)C)C(=O)N[C@H](CC(C)C)C(=O)N[C@H](C)C(=O)N[C@H](CC(C)C)C(=O)N2CCC[C@@H]2C(=O)O[C@@H]1C: PAMPA 0.3 × 10^-6 cm/s
* CC(=O)N1CCC[C@H]1C(=O)N(C)[C@@H](CC(C)C)C(=O)N[C@@H]1C(=O)N[C@H](CC(C)C)C(=O)N(C)[C@@H](CC(C)C)C(=O)N(C)[C@@H](CC(C)C)C(=O)N[C@@H](C)C(=O)N[C@@H](CC(C)C)C(=O)N2CCC[C@@H]2C(=O)O[C@@H]1C: PAMPA 6 × 10^-6 cm/s
* CC(=O)N[C@@H]1C(=O)N2CCC[C@H]2C(=O)N(C)[C@H](CC(C)C)C(=O)N[C@H](CC(C)C)C(=O)N[C@@H](CC(C)C)C(=O)N[C@@H](CC(C)C)C(=O)N[C@@H](C)C(=O)N[C@@H](CC(C)C)C(=O)N2CCC[C@@H]2C(=O)O[C@@H]1C: PAMPA 0.078 × 10^-6 cm/s
* CC(=O)N1CCC[C@H]1C(=O)N[C@@H]1C(=O)N(C)[C@H](CC(C)C)C(=O)N[C@H](CC(C)C)C(=O)N[C@@H](CC(C)C)C(=O)N[C@H](CC(C)C)C(=O)N(C)[C@@H](C)C(=O)N[C@@H](CC(C)C)C(=O)N2CCC[C@@H]2C(=O)O[C@@H]1C: PAMPA 1.5 × 10^-6 cm/s
* CC(=O)N1CCC[C@@H]1C(=O)N(C)[C@H](CC(C)C)C(=O)N[C@@H]1C(=O)N(C)[C@H](CC(C)C)C(=O)N[C@H](CC(C)C)C(=O)N(C)[C@@H](CC(C)C)C(=O)N(C)[C@@H](C)C(=O)N[C@H](CC(C)C)C(=O)N2CCC[C@@H]2C(=O)O[C@@H]1C: PAMPA 2.6 × 10^-6 cm/s
* CC(=O)N1CCC[C@@H]1C(=O)N(C)[C@H](CC(C)C)C(=O)N[C@@H]1C(=O)N(C)[C@@H](CC(C)C)C(=O)N(C)[C@H](CC(C)C)C(=O)N(C)[C@H](CC(C)C)C(=O)N(C)[C@H](C)C(=O)N[C@@H](CC(C)C)C(=O)N2CCC[C@H]2C(=O)O[C@@H]1C: PAMPA 0.35 × 10^-6 cm/s
* CC(=O)N1CCC[C@@H]1C(=O)N(C)[C@H](CC(C)C)C(=O)N[C@@H]1C(=O)N[C@H](CC(C)C)C(=O)N[C@H](CC(C)C)C(=O)N(C)[C@@H](CC(C)C)C(=O)N(C)[C@@H](C)C(=O)N[C@@H](CC(C)C)C(=O)N2CCC[C@H]2C(=O)O[C@@H]1C: PAMPA 3.3 × 10^-6 cm/s
* CC(=O)N[C@@H]1C(=O)N2CCC[C@H]2C(=O)N(C)[C@H](CC(C)C)C(=O)N[C@@H](CC(C)C)C(=O)N[C@H](CC(C)C)C(=O)N[C@H](CC(C)C)C(=O)N(C)[C@@H](C)C(=O)N[C@@H](CC(C)C)C(=O)N2CCC[C@@H]2C(=O)O[C@@H]1C: PAMPA 0.36 × 10^-6 cm/s
* CC(=O)N1CCC[C@@H]1C(=O)N(C)[C@@H](CC(C)C)C(=O)N[C@@H]1C(=O)N(C)[C@@H](CC(C)C)C(=O)N(C)[C@H](CC(C)C)C(=O)N(C)[C@@H](CC(C)C)C(=O)N(C)[C@@H](C)C(=O)N[C@H](CC(C)C)C(=O)N2CCC[C@H]2C(=O)O[C@@H]1C: PAMPA 5.1 × 10^-6 cm/s

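Conditions beyond the assay type are not listed; see the original paper. Other peptides of the study may be missing here. Entries at the database's floor value (log10 P of -10) are not listed.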

Source: CycPeptMPDB (Li et al. 2023), which took these values from Kelly et al. 2021, doi:10.1021/jacs.0c06115.